The structures appear in SMILES notation.

For experiment [1], the target named is T1, Na^+,K^+ -ATPase (Homo sapiens, UniProt P05023). The experiment is described as follows: displacement of specific ^3 H-ouabain binding from purified Na^+,K^+ -ATPase receptor.
The target of experiment [2] is T1, Na^+,K^+ -ATPase. The experiment is described as follows: inhibition of the activity of purified Na^+,K^+ -ATPase (hydrolysis of ^32 P-ATP). As to conditions: ^32 P-ATP hydrolysis. It counts as biochemical.

Take `C[C@]12CC[C@H](OCCN)C[C@H]1CC[C@@H]1[C@@H]2CC[C@]2(C)[C@@H](/C=N/O)CC[C@]12O`: the “Binding ^3 H-Ouab. Displacement -log IC50” value at Na^+,K^+ -ATPase [1] is on record as 5.8. The “Inhibitory Activity -log IC50” value at Na^+,K^+ -ATPase [2] is 4.6.

With `C[C@]12CC[C@H](OCCCN3CCCC3)C[C@H]1CC[C@@H]1[C@@H]2CC[C@]2(C)[C@@H](/C=N/O)CC[C@]12O`, the “Binding ^3 H-Ouab. Displacement -log IC50” value at Na^+,K^+ -ATPase [1] stood at 5.7. On Na^+,K^+ -ATPase [2], the “Inhibitory Activity -log IC50” value is reported as 4.5.

In the case of `C[C@]12CC[C@H](OCCN3CCCC3)C[C@H]1CC[C@@H]1[C@@H]2CC[C@]2(C)[C@@H](/C=N/O)CC[C@]12O`, the “Binding ^3 H-Ouab. Displacement -log IC50” value on Na^+,K^+ -ATPase [1] turned out to be 5.9. Besides, on Na^+,K^+ -ATPase [2], the “Inhibitory Activity -log IC50” value was 4.6.

Turning to `C[C@]12CC[C@H](OCCCN)C[C@H]1CC[C@@H]1[C@@H]2CC[C@]2(C)[C@@H](/C=N/O)CC[C@]12O`, the “Binding ^3 H-Ouab. Displacement -log IC50” value at Na^+,K^+ -ATPase [1] was determined as 6.0. The “Inhibitory Activity -log IC50” value at Na^+,K^+ -ATPase [2] is 4.6.

The record behind these values is US5444055A, “17-hydroxyiminomethyl-5-β, 14 β-androstane derivatives active on the cardiovascular system, processes for their preparation and pharmaceutical compositions containing same” (Sigma-Tau Industrie Farmaceutiche Riunite S.p.A., priority 1992, dated 1995).
